Assay results: patent US20050187188A1, “Methods for the treatment of a traumatic central nervous system injury” (Emory University, priority 2000, published 2005)

Key:
Assay type in all cases: in vivo, rat
[1] = test system: rats with bilateral frontal cortical contusions; assay: Morris water maze after MFC contusion, Example 2; conditions: 4 mg/kg; logarithmic regression
Description: Contusions to the MFC were carried out as described in Example 1.
Adult male rats were given 5 injections of either vehicle (cyclodextrin), progesterone, allopregnanolone, or epipregnanolone (all at 4 mg/kg). These injections started at one hour post-injury with an intraperitoneal injection, and then were repeated at 6, 24, 48, 72, 96, and 120 hours post-injury with subcutaneous injections.
The Morris Water Maize (MWM) consisted of a circular tank with a diameter of 133 cm filled with opaque water (20±1° C.; non-toxic Artista™ nontoxic white tempura paint) to a depth of 64 cm (23 cm from top of tank). A platform (11 cm×11 cm) was submerged to a depth of 2 cm and placed approximately 28 cm from the wall of the pool in the center of the northeast quadrant. The position of the platform will remain constant throughout the experiment. MWM testing began seven days after surgery. Each animal was tested for a total of 10 days (2 trials per day) in two 5-day blocks. At the start of each trial, the experimenter placed a rat into the pool at one of four starting positions, and at the same time, activate the computer-interfaced camera tracking system. […] The performance of each rat was measured in terms of latency to platform, length of path to platform, and swim strategy, i.e., percent of total time spent in the outer versus inner annuli.

TNFα = TNFα mRNA expression in brain tissue after contusion, real-time quantitative PCR
Description: (§1) Neurosteroid injections were given at 1 hr and 6 hrs after the contusions, and continued once a day for up to 5 consecutive days post-injury. At 3 hrs, 8 hrs, 12 hrs, and 6 days post-injury, the level of TNF mRNA expression was determined. sham-vehicle (SV); sham-progesterone (SP); sham-allopregnanolone (SA); lesion-vehicle (LV); Lesion-progesterone (LP); lesion-allopregnanolone. *=P<0.05
(§2) Adult male SD rates received either bilateral prefrontal cortical contusions or sham surgeries. The neurosteroid injections were given at 1 hr and 6 hr after the contusions and continued once a day for up to 5 consecutive days post-injury. At 3 hr, 8 hr, 12 hr and 6 days post-injury, the rats were killed and their brains were processed for mRNA extraction. Expression of mRNA for IL-1β and TNFα were assessed using real-time quantitative PCR.

IL-1β = IL-1β mRNA expression in brain tissue after contusion, real-time quantitative PCR
Description: as §1, with “12 hrs” for “12 hrs,”, “of IL-1” for “of TNF”
as §2

SMILES: CC(=O)[C@H]1CC[C@H]2[C@@H]3CC[C@H]4C[C@H](O)CC[C@]4(C)[C@H]3CC[C@]12C [allopregnanolone, allopregnan-3α, or 3β-ol-20-one]
- slope of learning curve (rate of learning) relative to injured rats given vehicle [1]: almost twice
- TNFα mRNA expression (TNFα; 3 hours and 6 days post-injury): reduced the expression of both IL-1β and TNFα
- TNFα mRNA expression (TNFα; 12 hours post-injury): enhanced
- IL-1β mRNA expression (IL-1β; 3 hours and 6 days post-injury): reduced the expression of both IL-1β and TNFα
- IL-1β mRNA expression (IL-1β; 8 hrs post-injury): enhanced
